Assay: Colorimetric FXa activity assay with S2222
Assay type: biochemical
Conditions: 100 mM NaCl, 50 mM Tris-HCl pH 8.0
Method: To determine whether the added FXa had been properly removed from the incubation mixture, both the GrB-H6 and the FXa activity was measured before and after removal of the added FXa using a colorimetric assay with the substrates S2222 (N-Benzoyl-L-isoleucyl-L-glutamyl-glycyl-L-arginine-p-nitroaniline, Chromogenix, Italy, cat. no. S2222) and Ac-IEPD-pNA (N-acetyl-L-isoleucyl-L-glutamyl-L-prolyl-L-aspartyl-p-nitroaniline, Calbiochem, La Jolla, USA, cat. no. 368067), where the absorbance was measured at 405 nm for approximately 3 minutes, and the ΔOD405/min was calculated. FXa activity was measured using the following mix: 500 μl buffer, 25 μl 3 mM S2222, and 5 μl FXa. GrB-H6 activity was measured using the following mix: 500 μl buffer, 2 μl 100 mM Ac-IEPD-pNA, and 5 μl GrB-H6.
The buffer used was either 100 mM NaCl, 50 mM Tris-HCl pH 8.0 or 100 mM HEPES pH 7.4. An example using the 100 mM NaCl, 50 mM Tris-HCl pH 8.0 buffer is shown below in Table 3, where the top fraction from the SP Sepharose eluate after FXa removal was used: […]

B1: FXa: purified bovine blood clotting factor Xa protease (protein)
chain: ANSFLEEVKQGNLERECLEEACSLEEAREVFEDAEQTDEFWSKYKDGDQCEGHPCLNQGHCKDGIGDYTCTCAEGFEGKNCEFSTREICSLDNGGCDQFCREERSEVRCSCAHGYVLGDDSKSCVSTERFPCGKFTQGRSRRWAIHTSEDALDASELEHYDPADLSPTESSLDLLGLNRTEPSAGEDGSQVVRIVGGRDCAEGECPWQALLVNEENEGFCGGTILNEFYVLTAAHCLHQAKRFTVRVGDRNTEQEEGNEMAHEVEMTVKHSRFVKETYDFDIAVLRLKTPIRFRRNVAPACLPEKDWAEATLMTQKTGIVSGFGRTHEKGRLSSTLKMLEVPYVDRSTCKLSSSFTITPNMFCAGYDTQPEDACQGDSGGPHVTRFKDTYFVTGIVSWGEGCARKGKFGVYTKVSNFLKWIDKIMKARAGAAGSRGHSEAPATWTVPPPLPL
Q: For B1, which “FXa activity, before FXa removal” value is on record?
A: Its value is 0.0139 ΔOD405/min.

Q: And the “FXa activity, after FXa removal” value (top fraction of SP Sepharose eluate)?
A: The value was 0.0001 ΔOD405/min.

— patent US8541200B2, “Cleavage of fusion proteins using Granzyme B protease” (Hoffmann-La Roche Inc., priority 2003, dated 2013)
